Yeast mating assay 1: variants of the scFv Ab-14

Source: Engelhart et al. 2022 (doi:10.1038/s41597-022-01779-4), MIT Lincoln Laboratory and A-Alpha Bio; data file from the FLAb repository.

Target: peptide PDVDLGDISGINAS, taken from heptad repeat 2 (HR2) of SARS-CoV-2 spike.

Parent scFv Ab-14: VH joined to VL by a 15-residue (Gly4Ser)3 linker. Changes lie in the heavy chain CDRs alone.
VH: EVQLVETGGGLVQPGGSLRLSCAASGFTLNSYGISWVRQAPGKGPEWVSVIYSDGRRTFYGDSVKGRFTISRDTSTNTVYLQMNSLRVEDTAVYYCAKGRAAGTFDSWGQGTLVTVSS
VL: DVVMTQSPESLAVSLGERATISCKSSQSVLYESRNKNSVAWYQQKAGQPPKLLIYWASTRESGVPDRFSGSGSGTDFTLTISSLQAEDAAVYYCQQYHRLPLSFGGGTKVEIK

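Phage display of a naive human antibody library on the peptide gave the parent. AAYL49 was designed without a model: most single CDR substitutions and a random sample of double and triple ones. AlphaSeq pools MATa yeast showing the antibodies with MATalpha yeast showing the peptide. After mating in shaken culture at 30 °C for 16 h, diploids were selected and their barcode pairs sequenced. A regression on co-assayed BCL2-family reference pairs converts the normalised counts of each replicate to an apparent Kd. There are three technical replicates.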

Each variant is given by its three heavy chain CDRs, as the data file delimits them; those of the parent are GFTLNSYGIS, VIYSDGRRTFYGDSVK, GRAAGTFDS.
Values are log10 of the apparent Kd in nM; lower means stronger binding.
The mean shown is taken over the replicates in which the pair was detected.
Where no diploid with the target was found in any replicate, the entry reads "nd": below detection, most likely a poor binder, though not proof of it.
As a blank, each scFv also met three strains without target: over library AAYL49, 15% of these pairings were detected, typically at 4.06 and seldom below 2.83. Also given: how often the same scFv was detected with the empty control strains.

| # | CDR-H1 | CDR-H2 | CDR-H3 | mean, log10 nM | detected | signal with controls |
|---|---|---|---|---|---|---|
| 1 | GFTLNSYGIC | HIYSDGRRTFVGDSVK | GRAAGTFDS | 3.67 | 1 of 3 | 0 of 9 |
| 2 | GFTLNSQGIS | VIYSDGRRDFYGISVK | GRAAGTFDS | nd | 0 of 3 | 0 of 9 |
| 3 | GMTLNSYGIS | VIYSDERRTFYGDSVK | GRAAGTFDS | nd | 0 of 3 | 2 of 9 |
| 4 | GFSLPSYGIS | VIYSDGRRTFYGDSVK | GRRAGTFDS | nd | 0 of 3 | 0 of 9 |
| 5 | GFTLNSYGIS | VITSDGGRTFYGDSVK | GRAAGTFDS | nd | 0 of 3 | 0 of 9 |
| 6 | GFTLNSYSIS | VIYSDGQRTFYGDSVK | CRAAGTFDS | 4.76 | 1 of 3 | 1 of 9 |
| 7 | GFCLNSYGIS | VIMSDGRGTFYGDSVK | GRAAGTFDS | 4.46 | 3 of 3 | 4 of 9 |
| 8 | GFVLNSYGTS | VIYSDGRRTFYGDSVK | GRMAGTFDS | nd | 0 of 3 | 0 of 9 |
| 9 | GFTLNSYGIS | VIYYDGRHTFFGDSVK | GRAAGTFDS | nd | 0 of 3 | 0 of 9 |
| 10 | GFTLNSYGIS | VIYSDTRRTFYGWSVK | GRAAGTFDK | nd | 0 of 3 | 0 of 9 |
| 11 | GFTLNSYGIS | VICSDGRRTFYGDWVK | GRADGTFDS | 5.46 | 1 of 3 | 3 of 9 |
| 12 | GFTLNSYGWS | VIYSDGRRTFYGDSVK | GHAAGTFNS | 5.13 | 2 of 3 | 4 of 9 |
| 13 | GFTLNSYGIS | VIGSDGRRTGYGDSVA | GRAAGTFDS | 5.45 | 1 of 3 | 2 of 9 |
| 14 | GFTLNSYGIK | VIYNDGRRTFYGDSVK | GEAAGTFDS | 5.69 | 3 of 3 | 1 of 9 |
| 15 | GFTLNSNGIS | VIYSDGRRTFPGDSVW | GRAAGTFDS | nd | 0 of 3 | 0 of 9 |
| 16 | GFTLNSYGSS | IIYSDGRRTFYGLSVK | GRAAGTFDS | nd | 0 of 3 | 0 of 9 |
| 17 | GFTLNSGGIS | VIPSDGRCTFYGDSVK | GRAAGTFDS | nd | 0 of 3 | 0 of 9 |
| 18 | GFTLNSYGIS | VIYSDCRRTFYSMSVK | GRAAGTFDS | nd | 0 of 3 | 1 of 9 |
| 19 | GFTLNSYGIS | VIYNDGRRTFYGDSDK | GRTAGTFDS | nd | 0 of 3 | 2 of 9 |
| 20 | GFTLNSYGIS | VIYSDGRRTFYGDRVK | GVCAGTFDS | 1.30 | 3 of 3 | 0 of 9 |
| 21 | GFTLNSYGIS | VLFSDGRRTFYGDSVK | GRAAGEFDS | 3.89 | 2 of 3 | 7 of 9 |
| 22 | GFTTNSYLIS | VIYSDGRRTFYGDVVK | GRAAGTFDS | nd | 0 of 3 | 0 of 9 |
| 23 | CFTANSYGIS | VIYSDGRRTFYGDSVK | GRPAGTFDS | 4.14 | 1 of 3 | 1 of 9 |
| 24 | GFTLNSYGIS | VIYSDGRFTFYGDSVK | GRAAGTFDT | 3.86 | 1 of 3 | 0 of 9 |
| 25 | AFTCNSYGIS | VIKSDGRRTFYGDSVK | GRAAGTFDS | 6.08 | 1 of 3 | 2 of 9 |
| 26 | GFTLNSYGIS | VIYSDGRRTFYGNSVK | GRWAGTFDA | 1.10 | 3 of 3 | 0 of 9 |
| 27 | GFTLNMYGIS | WIYSDRRRTFYGDSVK | GRAAGTFDS | nd | 0 of 3 | 0 of 9 |
| 28 | GFTKCSYGIS | VIYSAGRRTFYGDSVK | GRAAGTFDS | nd | 0 of 3 | 0 of 9 |
| 29 | GFTLNSYGIH | VIYSDGRRTFEGDSVK | GRAAGTFDS | 2.76 | 3 of 3 | 1 of 9 |
| 30 | GFTLNSYGIS | FDYSDGRRTFYGDSVK | GRAAGTFDS | nd | 0 of 3 | 0 of 9 |
| 31 | GFELNSYGIS | VIYSQGRRTFYGWSVK | GRAAGTFDS | nd | 0 of 3 | 3 of 9 |
| 32 | GFTLNSYGIS | VIYSDGRRTFYGDSYA | IRAAGTFDS | nd | 0 of 3 | 0 of 9 |
| 33 | GFTLKSYGIS | VIYSDGRRTFYGDSVK | KRAAGTADS | nd | 0 of 3 | 2 of 9 |
| 34 | FFTLNSYGIS | VIYSDDRRTFYGDSVK | WRAAGTFDS | nd | 0 of 3 | 1 of 9 |
| 35 | GFTLNSYGIS | VIYSDGRRTFYGDSVK | GVAAGTGDS | nd | 0 of 3 | 0 of 9 |
| 36 | GFTLNSYGIS | VIYSDGRVYFYGDSVK | GRAAGTFDS | 3.97 | 1 of 3 | 0 of 9 |
| 37 | GFTLNSYGIS | AIYSDGRRTFYGDSVK | ERANGTFDS | nd | 0 of 3 | 0 of 9 |
| 38 | GFYLNSYGIS | VYYSDGRRTFCGDSVK | GRAAGTFDS | nd | 0 of 3 | 0 of 9 |
| 39 | GFTLNSYGIS | VCYSDGRRTFYGESVK | GRAAGTFDE | 4.39 | 1 of 3 | 5 of 9 |
| 40 | GFTLNKYGIS | VIYSAGRRTFYGDSVK | GRAAGYFDS | nd | 0 of 3 | 0 of 9 |
| 41 | GFTLNSYHIS | VIRSDGRRNFYGDSVK | GRAAGTFDS | 5.08 | 2 of 3 | 8 of 9 |
| 42 | GFTLNAYGIS | VIYSDGRDTFYGDSKK | GRAAGTFDS | nd | 0 of 3 | 1 of 9 |
| 43 | GFTLNSYGIS | VIYHDGRRQFYGDSVK | GQAAGTFDS | 3.22 | 3 of 3 | 4 of 9 |
| 44 | GFTLNSYGLS | VIYSDGRFTFYGDSVK | GIAAGTFDS | nd | 0 of 3 | 0 of 9 |
| 45 | GFTLNSYGIS | VIYSDERRTFYGDSVK | GRAAGTHPS | 3.01 | 1 of 3 | 1 of 9 |
| 46 | GFTLNAYGIS | VIYSDGRRTFCGDSVK | GTAAGTFDS | 2.67 | 3 of 3 | 2 of 9 |
| 47 | GFPLNSYGIS | VIYSDGRRTFYKDSVK | GRAAWTFDS | 1.52 | 3 of 3 | 0 of 9 |
| 48 | GFTLNSYGIS | HIYSDGRRTFYGDSVK | GNAAGTMDS | 5.35 | 2 of 3 | 2 of 9 |
| 49 | GFTLNVYGIS | VIYSMLRRTFYGDSVK | GRAAGTFDS | nd | 0 of 3 | 0 of 9 |
| 50 | GFTLNSYGIS | VIYSDRRETFYGDSGK | GRAAGTFDS | nd | 0 of 3 | 1 of 9 |
| 51 | GFTLNSIGIS | VIYLDGCRTFYGDSVK | GRAAGTFDS | 5.24 | 2 of 3 | 1 of 9 |
| 52 | GFTLNSYGVS | VIYSDGNRTFYGDEVK | GRAAGTFDS | nd | 0 of 3 | 0 of 9 |
| 53 | GFTLNSYGIW | VIYNDARRTFYGDSVK | GRAAGTFDS | 4.22 | 1 of 3 | 0 of 9 |
| 54 | GFTLNSYGIS | VLYSDGRRTFYGDQVK | GRAAGTFDS | 2.11 | 3 of 3 | 0 of 9 |
| 55 | GFTLNCAGIS | VIYSDGRRTFYGDSVK | GRAAGTIDS | 4.09 | 1 of 3 | 4 of 9 |
| 56 | GFTLNSYGIS | VIASEGRRTFYGDSMK | GRAAGTFDS | nd | 0 of 3 | 0 of 9 |
| 57 | GFTLNSYGIS | VIYSDGRRTFYGDQVK | GRAAQTFDS | nd | 0 of 3 | 0 of 9 |
| 58 | GFTLNSYGIS | VIDSDGRRTFYGDSVK | GSAAGPFDS | nd | 0 of 3 | 0 of 9 |
| 59 | GFTLNSYGIS | VGYSDGRRTFYGDSVK | GYAAGTFES | nd | 0 of 3 | 0 of 9 |

The last 8 entries again:

{"CDR-H1": "GFTLNSYGVS", "CDR-H2": "VIYSDGNRTFYGDEVK", "CDR-H3": "GRAAGTFDS", "mean, log10 nM": "nd", "detected": "0 of 3", "signal with controls": "0 of 9"}
{"CDR-H1": "GFTLNSYGIW", "CDR-H2": "VIYNDARRTFYGDSVK", "CDR-H3": "GRAAGTFDS", "mean, log10 nM": "4.22", "detected": "1 of 3", "signal with controls": "0 of 9"}
{"CDR-H1": "GFTLNSYGIS", "CDR-H2": "VLYSDGRRTFYGDQVK", "CDR-H3": "GRAAGTFDS", "mean, log10 nM": "2.11", "detected": "3 of 3", "signal with controls": "0 of 9"}
{"CDR-H1": "GFTLNCAGIS", "CDR-H2": "VIYSDGRRTFYGDSVK", "CDR-H3": "GRAAGTIDS", "mean, log10 nM": "4.09", "detected": "1 of 3", "signal with controls": "4 of 9"}
{"CDR-H1": "GFTLNSYGIS", "CDR-H2": "VIASEGRRTFYGDSMK", "CDR-H3": "GRAAGTFDS", "mean, log10 nM": "nd", "detected": "0 of 3", "signal with controls": "0 of 9"}
{"CDR-H1": "GFTLNSYGIS", "CDR-H2": "VIYSDGRRTFYGDQVK", "CDR-H3": "GRAAQTFDS", "mean, log10 nM": "nd", "detected": "0 of 3", "signal with controls": "0 of 9"}
{"CDR-H1": "GFTLNSYGIS", "CDR-H2": "VIDSDGRRTFYGDSVK", "CDR-H3": "GSAAGPFDS", "mean, log10 nM": "nd", "detected": "0 of 3", "signal with controls": "0 of 9"}
{"CDR-H1": "GFTLNSYGIS", "CDR-H2": "VGYSDGRRTFYGDSVK", "CDR-H3": "GYAAGTFES", "mean, log10 nM": "nd", "detected": "0 of 3", "signal with controls": "0 of 9"}